Data taken from patent publication US12162888B2, “Carboxamides as ubiquitin-specific protease inhibitors” (Valo Early Discovery, Inc., priority 2018, dated 2024).

Molecular target: T1, USP28 (His-tagged USP28-FL-mammalian) (Homo sapiens, UniProt Q96RU2)
T1 construct: Expression of USP28 (1-1077)-TEV-6*His (pTT5 vector) was carried out in Expi293f cells; made in house; host or cells: Expi293F cells (pTT5 vector)
T1 sequence (Q96RU2 1-1077): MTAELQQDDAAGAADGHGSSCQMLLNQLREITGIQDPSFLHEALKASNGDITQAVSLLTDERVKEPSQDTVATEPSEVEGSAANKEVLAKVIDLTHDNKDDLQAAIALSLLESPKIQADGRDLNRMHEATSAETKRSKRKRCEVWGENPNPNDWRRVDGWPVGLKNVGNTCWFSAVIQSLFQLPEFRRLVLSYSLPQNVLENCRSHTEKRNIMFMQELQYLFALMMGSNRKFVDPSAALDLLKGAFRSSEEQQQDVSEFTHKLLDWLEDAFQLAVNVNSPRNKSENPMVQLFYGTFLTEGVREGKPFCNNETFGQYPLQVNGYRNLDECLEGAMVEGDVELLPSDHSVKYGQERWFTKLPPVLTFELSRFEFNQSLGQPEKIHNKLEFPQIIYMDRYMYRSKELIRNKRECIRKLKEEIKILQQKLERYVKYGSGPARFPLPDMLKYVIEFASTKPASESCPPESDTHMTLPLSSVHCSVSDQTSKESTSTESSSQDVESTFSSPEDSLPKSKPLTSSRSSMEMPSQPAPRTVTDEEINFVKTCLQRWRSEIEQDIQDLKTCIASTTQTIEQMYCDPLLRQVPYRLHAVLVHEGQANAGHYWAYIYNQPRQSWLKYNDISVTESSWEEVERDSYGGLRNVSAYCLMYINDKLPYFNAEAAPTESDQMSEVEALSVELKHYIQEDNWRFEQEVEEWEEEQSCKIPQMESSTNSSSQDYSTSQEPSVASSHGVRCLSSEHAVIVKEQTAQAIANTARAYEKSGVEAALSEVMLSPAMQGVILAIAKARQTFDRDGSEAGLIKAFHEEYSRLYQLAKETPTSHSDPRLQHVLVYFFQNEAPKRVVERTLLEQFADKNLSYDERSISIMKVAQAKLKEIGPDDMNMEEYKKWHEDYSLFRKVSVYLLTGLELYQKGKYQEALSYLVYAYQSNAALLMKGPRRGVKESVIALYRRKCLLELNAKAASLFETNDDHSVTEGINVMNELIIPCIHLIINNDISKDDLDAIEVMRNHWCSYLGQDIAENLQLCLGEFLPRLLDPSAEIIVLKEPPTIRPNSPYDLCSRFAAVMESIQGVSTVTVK
Assay: Ubiquitin-Rhodamine 110 Assay for USP28 Activity, Example A-1(a)
Details: biochemical IC50 range
Experimental: Example A-1(a): Biochemical Assay: Ubiquitin-Rhodamine 110 Assay for USP28 Activity
The assay was performed in a final volume of 9 μL in assay buffer containing 20 mM Tris-HCl (pH 8.0, (1M Tris-HCl, pH 8.0 solution; Corning 46-031-CM)), 3 mM BME (2-Mercaptoethanol; Sigma 63689-25ML-F), 0.03% BGG (0.22 μM filtered, Sigma, G7516-25G), and 0.01% Triton X-100 (Sigma, T9284-10L). Nanoliter quantities of 10-point, 3-fold serial dilution in DMSO was pre-dispensed into 1536 assay plates (Corning, #3724BC) for a final test concentration of 25 μM to 1.3 nM, top to lowest dose, respectively. Enzyme USP28, construct His-tagged USP28-FL-mammalian, (protein expression and purification procedure described below). […] Fluorescence was read on the Envision (Excitation at 485 nm and Emission at 535 nm; Perkin Elmer) or on the PheraSTAR (Excitation at 485 nm and Emission at 535 nm; BMG Labtech). […]
For assay formats Example A-1(a), A-1(b), and A-2, data were reported as percent inhibition compared with control wells based on the following equation: % inh=1−((FLU−AveLow)/(AveHigh−AveLow)) where FLU=measured Fluorescence, AveLow=average Fluorescence of no enzyme control (n=16), and AveHighh=average Fluorescence of DMSO control (n=16). IC50 values were determined by curve fitting of the standard 4 parameter logistic fitting algorithm included in the Activity Base software package: IDBS XE Designer Model 205. […]

Substance | IC50 [nM]
3-amino-N-[(3R)-7-[(3R,4S)-3-(methoxymethyl)-4-[(^2H[…])methylamino]pyrrolidin-1-yl]-3,4-dihydro-2H-1-benzopyran-3-yl]-6-methylthieno[2,3-b]pyridine-2-carboxamide [Example 671] | 1 to 50
3-amino-N-[(3R)-7-[(3S,4R)-3-(methoxymethyl)-4-[(^2H[…])methylamino]pyrrolidin-1-yl]-3,4-dihydro-2H-1-benzopyran-3-yl]-6-methylthieno[2,3-b]pyridine-2-carboxamide [Example 670] | 1 to 50
